Assay results from publication PMC3824626 (Bioorganic & medicinal chemistry letters, 2013).

Chains of the proteins cited; added tags and fusions are not shown. Lines headed by an entry give the natural chain unless they say otherwise; changes in a name come on top.
UniProt P54132: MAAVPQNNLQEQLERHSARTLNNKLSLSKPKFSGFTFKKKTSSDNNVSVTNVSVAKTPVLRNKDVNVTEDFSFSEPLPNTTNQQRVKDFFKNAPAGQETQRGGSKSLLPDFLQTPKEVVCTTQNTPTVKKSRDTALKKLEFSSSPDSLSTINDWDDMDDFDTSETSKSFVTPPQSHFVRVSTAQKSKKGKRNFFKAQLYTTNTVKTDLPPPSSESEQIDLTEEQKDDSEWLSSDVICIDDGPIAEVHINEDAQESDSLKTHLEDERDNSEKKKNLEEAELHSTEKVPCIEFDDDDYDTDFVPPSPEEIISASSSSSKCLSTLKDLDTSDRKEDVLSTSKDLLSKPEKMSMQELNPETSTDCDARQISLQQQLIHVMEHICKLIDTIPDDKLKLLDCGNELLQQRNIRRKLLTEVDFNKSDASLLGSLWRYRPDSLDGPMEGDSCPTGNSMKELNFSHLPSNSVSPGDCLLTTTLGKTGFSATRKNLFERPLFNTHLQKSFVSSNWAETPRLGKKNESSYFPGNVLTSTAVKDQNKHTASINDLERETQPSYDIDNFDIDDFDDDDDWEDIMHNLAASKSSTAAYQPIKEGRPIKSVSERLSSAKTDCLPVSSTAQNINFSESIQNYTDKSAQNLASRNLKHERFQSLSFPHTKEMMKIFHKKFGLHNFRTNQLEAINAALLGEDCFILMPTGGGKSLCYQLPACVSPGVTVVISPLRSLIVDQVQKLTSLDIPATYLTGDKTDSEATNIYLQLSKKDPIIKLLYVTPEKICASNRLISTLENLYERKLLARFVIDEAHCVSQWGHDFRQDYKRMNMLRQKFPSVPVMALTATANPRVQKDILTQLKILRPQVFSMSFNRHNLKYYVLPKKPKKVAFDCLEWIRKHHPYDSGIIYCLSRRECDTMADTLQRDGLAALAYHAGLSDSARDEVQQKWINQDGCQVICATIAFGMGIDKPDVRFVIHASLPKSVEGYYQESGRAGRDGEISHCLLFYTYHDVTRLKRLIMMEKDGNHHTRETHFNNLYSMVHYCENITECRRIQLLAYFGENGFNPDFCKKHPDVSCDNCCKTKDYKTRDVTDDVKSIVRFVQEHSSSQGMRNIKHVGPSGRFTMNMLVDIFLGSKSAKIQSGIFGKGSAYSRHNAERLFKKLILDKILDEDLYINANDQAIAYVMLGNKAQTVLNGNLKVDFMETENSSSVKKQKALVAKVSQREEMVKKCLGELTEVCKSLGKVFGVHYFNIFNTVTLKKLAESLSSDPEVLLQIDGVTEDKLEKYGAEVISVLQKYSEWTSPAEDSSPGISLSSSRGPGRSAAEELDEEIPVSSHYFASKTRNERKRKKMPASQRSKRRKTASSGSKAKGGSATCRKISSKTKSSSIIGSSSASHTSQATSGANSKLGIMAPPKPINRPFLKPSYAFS

Biological target: BLM helicase (Homo sapiens, UniProt P54132)
Experiment: gel-based BLM DNA unwinding assay
Assay type: biochemical

IC50 (BLM): good activity
Structure (SMILES): O=C(Nc1ccc(F)c(C(F)(F)F)c1)Nc1nnc(-c2ccncc2)s1 [ML216]
